The values that follow are results of earlier work, collected in patent publication US10183918B2, “Oxa-azaspiro compounds having activity against pain” (LABORATORIOS DEL DR. ESTEVE S.A., priority 2015, dated 2019).

Chains of the proteins cited; added tags and fusions are not shown.
UniProt Q99720, whole entry: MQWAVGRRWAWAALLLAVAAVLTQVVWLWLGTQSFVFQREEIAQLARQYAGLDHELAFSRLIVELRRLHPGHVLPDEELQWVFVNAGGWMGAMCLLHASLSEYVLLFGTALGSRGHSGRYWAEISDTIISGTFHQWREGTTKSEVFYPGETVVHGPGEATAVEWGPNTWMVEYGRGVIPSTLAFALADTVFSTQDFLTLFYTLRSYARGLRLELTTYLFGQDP

In this series the target is sigma-1 (σ1) site (Homo sapiens, UniProt Q99720). Conditions: result in words, background; cited from earlier work.

In the case of (+)SKF-10047, the “affinity for the sigma-1 (σ1) site” value is on record as “nanomolar affinity”.
